The record followed here is patent US20140303084A1 (Biogen, published 2014).

Protein sequences, listed by entry. Tags and fused reporters are not part of them. Residues count along the entry.
UniProt P16294, 47-471 limits assumed: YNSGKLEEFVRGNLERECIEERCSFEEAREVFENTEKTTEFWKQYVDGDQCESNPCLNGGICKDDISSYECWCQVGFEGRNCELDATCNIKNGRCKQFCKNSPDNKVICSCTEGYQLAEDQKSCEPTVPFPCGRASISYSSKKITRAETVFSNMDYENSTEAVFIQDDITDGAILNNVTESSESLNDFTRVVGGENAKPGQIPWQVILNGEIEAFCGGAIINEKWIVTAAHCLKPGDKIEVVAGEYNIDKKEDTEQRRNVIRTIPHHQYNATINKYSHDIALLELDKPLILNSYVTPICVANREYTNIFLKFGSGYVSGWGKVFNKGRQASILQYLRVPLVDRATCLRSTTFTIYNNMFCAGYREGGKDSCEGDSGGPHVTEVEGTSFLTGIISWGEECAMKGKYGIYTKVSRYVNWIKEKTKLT

One assay addresses human Factor IXa (human, UniProt P00740 47-191; P00740 227-461). As to the kind of experiment: cell-based or functional assay.
For a further assay, the target named is mouse FIXa (mouse, UniProt P16294 47-471, limits assumed). As to the kind of experiment: cell-based or functional assay.

Regarding RRAPGKLQCLASYCWLFWTGIA (C-terminal amide) [compound 3], in the assay with human Factor IXa, the “EC50 (µM), FXa generation assay, with phospholipids” value (“EC50 (µM) … with phospholipids” below) is 0.125 µM and the “EC50 (µM), FXa generation assay, without phospholipids” value came to 0.115 µM.

Regarding KLTCLASYCWLF (C-terminal amide) [compound 1], the “EC50, FXa generation assay with mouse FIXa” value in the assay with mouse FIXa came out at 0.44 µM. Besides, in the assay with human Factor IXa, the “EC50 (µM) … with phospholipids” value was 0.49 µM.

As for KLTCLASYCWLF (D-Lys at 1; N-methyl-Leu at 2; C-terminal amide) [compound 2], in the assay with human Factor IXa, the “EC50 (µM) … with phospholipids” value came out at 0.23 µM.
